For 21 compounds, IC50 results are on record in patent US10112926B2 (priority 2014, dated 2018).

Amino acid sequences for entries named in this document (tags omitted). A change or cut given only in a name is not applied to a line headed by its entry.
UniProt P42336, whole entry, looked up: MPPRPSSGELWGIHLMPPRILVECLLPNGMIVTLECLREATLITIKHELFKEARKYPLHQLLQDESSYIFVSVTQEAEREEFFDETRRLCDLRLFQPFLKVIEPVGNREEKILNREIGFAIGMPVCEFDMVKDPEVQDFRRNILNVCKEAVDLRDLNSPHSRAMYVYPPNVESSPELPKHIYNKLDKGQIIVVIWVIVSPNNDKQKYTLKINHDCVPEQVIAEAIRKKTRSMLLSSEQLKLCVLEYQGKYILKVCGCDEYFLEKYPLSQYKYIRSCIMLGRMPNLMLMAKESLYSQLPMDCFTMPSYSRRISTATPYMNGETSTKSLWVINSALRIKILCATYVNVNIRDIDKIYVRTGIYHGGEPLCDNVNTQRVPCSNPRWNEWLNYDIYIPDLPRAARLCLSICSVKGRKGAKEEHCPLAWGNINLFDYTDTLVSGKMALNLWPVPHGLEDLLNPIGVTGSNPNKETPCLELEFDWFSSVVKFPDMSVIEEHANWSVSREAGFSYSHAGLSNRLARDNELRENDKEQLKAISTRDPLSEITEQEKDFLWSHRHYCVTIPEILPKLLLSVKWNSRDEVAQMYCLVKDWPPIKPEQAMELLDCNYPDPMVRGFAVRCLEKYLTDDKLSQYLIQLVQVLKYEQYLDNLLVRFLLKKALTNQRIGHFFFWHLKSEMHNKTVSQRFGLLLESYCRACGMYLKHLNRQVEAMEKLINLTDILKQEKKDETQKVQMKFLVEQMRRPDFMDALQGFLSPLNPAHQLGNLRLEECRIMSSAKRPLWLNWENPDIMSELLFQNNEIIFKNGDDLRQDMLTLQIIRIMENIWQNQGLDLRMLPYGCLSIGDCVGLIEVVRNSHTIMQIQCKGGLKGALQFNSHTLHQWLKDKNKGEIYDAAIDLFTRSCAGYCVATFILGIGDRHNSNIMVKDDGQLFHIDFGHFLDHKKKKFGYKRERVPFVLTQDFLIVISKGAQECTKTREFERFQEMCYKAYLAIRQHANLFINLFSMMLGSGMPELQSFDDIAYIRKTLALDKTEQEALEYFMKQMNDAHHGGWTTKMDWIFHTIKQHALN
UniProt Q8NEB9, whole entry: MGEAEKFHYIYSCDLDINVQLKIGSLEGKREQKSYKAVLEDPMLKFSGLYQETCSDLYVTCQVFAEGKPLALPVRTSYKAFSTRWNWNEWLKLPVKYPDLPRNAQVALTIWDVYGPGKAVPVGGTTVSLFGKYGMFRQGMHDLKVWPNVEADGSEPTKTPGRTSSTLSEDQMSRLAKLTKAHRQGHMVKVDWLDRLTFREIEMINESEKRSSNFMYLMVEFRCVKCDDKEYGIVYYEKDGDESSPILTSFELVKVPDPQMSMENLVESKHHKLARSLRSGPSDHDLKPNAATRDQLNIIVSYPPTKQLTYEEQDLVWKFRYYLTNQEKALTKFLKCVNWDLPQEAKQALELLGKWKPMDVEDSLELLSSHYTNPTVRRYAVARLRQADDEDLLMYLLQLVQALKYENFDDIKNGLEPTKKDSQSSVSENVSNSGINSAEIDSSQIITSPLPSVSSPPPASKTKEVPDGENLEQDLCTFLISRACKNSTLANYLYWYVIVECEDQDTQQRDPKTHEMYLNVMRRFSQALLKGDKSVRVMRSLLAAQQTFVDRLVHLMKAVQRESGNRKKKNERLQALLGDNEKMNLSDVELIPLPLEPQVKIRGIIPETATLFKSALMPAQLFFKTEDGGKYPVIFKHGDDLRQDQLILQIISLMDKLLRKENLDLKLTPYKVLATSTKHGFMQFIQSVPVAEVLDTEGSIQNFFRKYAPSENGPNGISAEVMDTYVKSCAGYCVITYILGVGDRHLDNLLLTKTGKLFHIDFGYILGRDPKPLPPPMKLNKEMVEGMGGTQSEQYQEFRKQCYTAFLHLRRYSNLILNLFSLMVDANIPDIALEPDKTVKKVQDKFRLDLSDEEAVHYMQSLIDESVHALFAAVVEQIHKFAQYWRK
UniProt Q9UBF8: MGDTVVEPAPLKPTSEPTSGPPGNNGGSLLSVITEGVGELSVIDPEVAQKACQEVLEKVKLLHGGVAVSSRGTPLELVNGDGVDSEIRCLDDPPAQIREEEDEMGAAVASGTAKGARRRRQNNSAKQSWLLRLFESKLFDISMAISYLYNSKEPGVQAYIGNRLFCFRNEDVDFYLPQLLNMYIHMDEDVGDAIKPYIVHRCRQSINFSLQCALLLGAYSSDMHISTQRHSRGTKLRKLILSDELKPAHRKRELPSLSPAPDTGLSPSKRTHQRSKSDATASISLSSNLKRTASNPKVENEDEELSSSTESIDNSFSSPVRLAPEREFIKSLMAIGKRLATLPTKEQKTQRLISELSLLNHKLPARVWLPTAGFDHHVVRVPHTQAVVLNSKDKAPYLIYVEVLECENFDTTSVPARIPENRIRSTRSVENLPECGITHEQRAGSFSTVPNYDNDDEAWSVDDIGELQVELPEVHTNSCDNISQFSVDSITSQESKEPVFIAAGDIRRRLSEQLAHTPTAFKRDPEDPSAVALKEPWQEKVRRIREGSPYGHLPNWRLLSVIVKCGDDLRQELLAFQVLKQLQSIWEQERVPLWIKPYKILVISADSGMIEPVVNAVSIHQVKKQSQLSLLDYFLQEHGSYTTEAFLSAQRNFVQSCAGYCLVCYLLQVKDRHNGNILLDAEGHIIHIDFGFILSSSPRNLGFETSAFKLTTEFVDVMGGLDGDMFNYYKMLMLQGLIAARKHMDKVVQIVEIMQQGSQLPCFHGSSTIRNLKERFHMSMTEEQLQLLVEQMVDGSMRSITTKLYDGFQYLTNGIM
UniProt P42338: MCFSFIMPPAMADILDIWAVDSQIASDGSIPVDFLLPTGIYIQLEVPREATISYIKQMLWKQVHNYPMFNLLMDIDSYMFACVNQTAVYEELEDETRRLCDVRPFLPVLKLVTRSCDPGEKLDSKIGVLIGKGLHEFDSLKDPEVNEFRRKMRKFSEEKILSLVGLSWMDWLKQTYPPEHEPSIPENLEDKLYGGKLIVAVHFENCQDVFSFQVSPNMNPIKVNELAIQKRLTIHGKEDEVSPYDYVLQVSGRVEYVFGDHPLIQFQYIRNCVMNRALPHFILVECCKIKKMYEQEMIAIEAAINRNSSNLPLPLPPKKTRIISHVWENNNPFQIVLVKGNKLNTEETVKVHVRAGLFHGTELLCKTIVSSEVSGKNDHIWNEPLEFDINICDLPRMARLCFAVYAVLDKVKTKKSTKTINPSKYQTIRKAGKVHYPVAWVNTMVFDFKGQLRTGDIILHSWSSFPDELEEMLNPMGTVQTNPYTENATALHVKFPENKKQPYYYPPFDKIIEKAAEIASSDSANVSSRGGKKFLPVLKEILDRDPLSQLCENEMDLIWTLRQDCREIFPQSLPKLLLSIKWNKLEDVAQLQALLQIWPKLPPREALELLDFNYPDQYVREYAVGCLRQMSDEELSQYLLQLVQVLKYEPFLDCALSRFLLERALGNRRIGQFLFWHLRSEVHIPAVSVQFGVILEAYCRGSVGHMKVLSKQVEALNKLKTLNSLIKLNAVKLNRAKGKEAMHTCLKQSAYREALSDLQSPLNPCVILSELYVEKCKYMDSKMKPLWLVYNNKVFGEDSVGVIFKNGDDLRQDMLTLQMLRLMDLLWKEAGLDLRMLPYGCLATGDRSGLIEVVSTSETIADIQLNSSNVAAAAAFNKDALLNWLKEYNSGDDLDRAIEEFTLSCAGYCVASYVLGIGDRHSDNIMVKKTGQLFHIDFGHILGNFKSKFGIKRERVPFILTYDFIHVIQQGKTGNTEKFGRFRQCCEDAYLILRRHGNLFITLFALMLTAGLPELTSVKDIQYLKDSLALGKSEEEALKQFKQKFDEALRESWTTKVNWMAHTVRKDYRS

In one experiment the target is PI 3-kinase alpha (Homo sapiens (Human), UniProt P42336). As to conditions: read-out: Assay A PI3Kα IC50.
For another experiment, the target named is mTOR (Homo sapiens (Human), UniProt P42345). Conditions: read-out: Assay G mTOR IC50.
The target in a further experiment is Vps34 (Homo sapiens (Human), UniProt Q8NEB9). As to conditions: read-out: Assay C VPS34 IC50.
A further experiment deals with PI 4-kinase beta (Homo sapiens (Human), UniProt Q9UBF8). As to conditions: read-out: Assay D PI4Kβ IC50.
The target in the next experiment is PI 3-kinase beta (Homo sapiens (Human), UniProt P42338). As to conditions: read-out: Assay B PI3Kβ IC50.

Counter-ions that a name gives are not always drawn.

As a reminder, the IC50 is the concentration at which inhibition is half-maximal. `Cc1cc(-c2cc(-c3cc(S(=O)(=O)N4C[C@H](C)[C@@H](O)C4)ccc3C)cnc2N)on1` (relative stereo) [Example 101.3, trans-1-((3-(6-amino-5-(3-methylisoxazol-5-yl)pyridin-3-yl)-4-methylphenyl)sulfonyl)-4-methylpyrrolidin-3-ol]: the 50% inhibitory concentration (IC50) at PI 3-kinase alpha was 0.8 µM.
In the case of `Cc1ccc(S(=O)(=O)NCCC(C)(C)O)cc1-c1cnc(N)c(-c2cnn(CC(F)(F)F)c2)c1` [Example 3, 3-(6-Amino-5-(1-(2,2,2-trifluoroethyl)-1H-pyrazol-4-yl)pyridin-3-yl)-N-(3-hydroxy-3-methylbutyl)-4-methylbenzenesulfonamide], on mTOR, the IC50 turned out to be 3.11 µM.
Still for that read-out and setting: the same measure for `Cc1cc(-c2cc(-c3cc(S(=O)(=O)N[C@H]4CC[C@H](O)CC4)ccc3C)cnc2N)on1` [Example 5.4, trans 3-(6-Amino-5-(3-methylisoxazol-5-yl)pyridin-3-yl)-N-(-4-hydroxycyclohexyl)-4-methylbenzenesulfon-amide hydrochloride]: 3 µM; for `Cc1noc(-c2cc(-c3cc(S(=O)(=O)NCC(C)(C)O)ccc3C)cnc2N)n1` [Example 10, 3-(6-Amino-5-(3-methyl-1,2,4-oxadiazol-5-yl)pyridin-3-yl)-N-(2-hydroxy-2-methylpropyl)-4-methylbenzenesulfonamide, hydrochloride salt]: 4.2 µM; for `Cc1ncc(-c2cc(-c3cc(S(=O)(=O)NC4CC5(CC(O)C5)C4)ccc3C)cnc2N)s1` (stereo not shown) [Example 28, 3-(6-Amino-5-(2-methylthiazol-5-yl)pyridin-3-yl)-N-(6-hydroxyspiro[3.3]heptan-2-yl)-4-methylbenzenesulfonamide]: 0.13 µM.
On to `Cc1cc(-c2cc(-c3cc(S(=O)(=O)NCC4(CO)CCOCC4)ccc3C)cnc2N)on1` [Example 37.1, 3-(6-Amino-5-(3-methylisoxazol-5-yl)pyridin-3-yl)-N-((4-(hydroxymethyl)tetrahydro-2H-pyran-4-yl)methyl)-4-methylbenzenesulfonamide], for which the figures for the IC50 at mTOR and at Vps34 were 8.8 µM and greater than 10 µM, respectively.
Take `Cc1cc(-c2cc(-c3cc(S(=O)(=O)NC4CCOCC4)ccc3C)cnc2N)on1` [Example 37.8, 3-(6-Amino-5-(3-methylisoxazol-5-yl)pyridin-3-yl)-4-methyl-N-(tetrahydro-2H-pyran-4-yl)benzenesulfonamide]: the values for the half-inhibitory concentration (IC50) on mTOR and on PI 4-kinase beta were 6.4 µM and 5.7 µM, respectively.
For `Cc1cc(-c2cc(-c3cc(S(=O)(=O)N4CC(C)(O)C4)ccc3C)cnc2N)on1` [Example 37.28, 1-((3-(6-Amino-5-(3-methylisoxazol-5-yl)pyridin-3-yl)-4-methylphenyl)sulfonyl)-3-methylazetidin-3-ol], at PI 3-kinase alpha, the IC50 was 0.58 µM.
Same read-out and setting: the same measure for `Cc1cc(-c2cc(-c3cc(S(=O)(=O)NC[C@@H]4CCCO4)ccc3C)cnc2N)on1` [Example 40, (S)-3-(6-Amino-5-(3-methylisoxazol-5-yl)pyridin-3-yl)-4-methyl-N-((tetrahydrofuran-2-yl)methyl)benzenesulfonamide]: 0.44 µM.
`Cc1ccc(S(=O)(=O)NCC(C)(C)O)cc1-c1cnc(N)c(-c2cnn(C)c2C)c1` [Example 61, 3-(6-Amino-5-(1,5-dimethyl-1H-pyrazol-4-yl)pyridin-3-yl)-N-(2-hydroxy-2-methylpropyl)-4-methylbenzenesulfonamide]: the IC50 on mTOR was 6.7 µM; on PI 4-kinase beta, 1.7 µM.
For the compound `Cc1ccc(S(=O)(=O)NCC(C)(C)O)cc1-c1cnc(N)c(-c2cn(C)nn2)c1` [Example 63, 3-(6-Amino-5-(1-methyl-1H-1,2,3-triazol-4-yl)pyridin-3-yl)-N-(2-hydroxy-2-methylpropyl)-4-methylbenzenesulfonamide hydrochloride], on mTOR, the IC50 came to 5.3 µM.
As to `Cc1cccc(NS(=O)(=O)c2ccc(C)c(-c3cnc(N)c(-c4nc(C)no4)c3)c2)n1` [Example 72, 3-(6-Amino-5-(3-methyl-1,2,4-oxadiazol-5-yl)pyridin-3-yl)-4-methyl-N-(6-methylpyridin-2-yl)benzenesulfonamide], the IC50 at mTOR was 0.37 µM.
For the compound `Cc1noc(-c2cc(-c3cc(S(N)(=O)=O)ccc3C)cnc2N)n1` [Example 75, 3-(6-Amino-5-(3-methyl-1,2,4-oxadiazol-5-yl)pyridin-3-yl)-4-methylbenzenesulfonamide], the 50% inhibitory concentration (IC50) is 8.2 µM on mTOR and greater than 10 µM at Vps34.
`Cc1ccc(S(=O)(=O)N[C@H]2CC[C@H](O)CC2)cc1-c1cnc(N)c(-c2nc(CC(F)(F)F)no2)c1` [Example 78, trans-3-(6-Amino-5-(3-(2,2,2-trifluoroethyl)-1,2,4-oxadiazol-5-yl)pyridin-3-yl)-N-((1r,4r)-4-hydroxycyclohexyl)-4-methylbenzenesulfonamide]: the IC50 at PI 3-kinase alpha was determined as 0.09 µM.
Regarding `Cc1ccc(S(=O)(=O)NCC(C)(C)O)cc1-c1cnc(N)c(-n2cncn2)c1` [Example 81, 3-(6-Amino-5-(1H-1,2,4-triazol-1-yl)pyridin-3-yl)-N-(2-hydroxy-2-methylpropyl)-4-methylbenzenesulfonamide hydrochloride], the IC50 at mTOR came out at 6.6 µM.
`Cc1ccc(S(=O)(=O)NCC(C)(C)O)cc1-c1cnc(N)c(-c2cnco2)c1` [Example 94a, 3-(6-amino-5-(oxazol-5-yl)pyridin-3-yl)-N-(2-hydroxy-2-methylpropyl)-4-methylbenzenesulfonamide]: the IC50 at mTOR was determined as 3.3 µM; at PI 4-kinase beta, 3.8 µM.
Regarding `Cc1ncc(-c2cc(-c3cc(S(=O)(=O)NCC4COC4)ccc3C)cnc2N)o1` [Example 104.3, 3-(6-amino-5-(2-methyloxazol-5-yl)pyridin-3-yl)-4-methyl-N-(oxetan-3-ylmethyl)benzenesulfon-amide], the IC50 on PI 3-kinase beta is 2.7 µM.
As for `Cc1ncc(-c2cc(-c3cc(S(=O)(=O)NCC(F)(F)F)ccc3C)cnc2N)o1` [Example 104.9, 3-(6-amino-5-(2-methyloxazol-5-yl)pyridin-3-yl)-4-methyl-N-(2,2,2-trifluoroethyl)benzene-sulfonamide], the values for the IC50 on PI 4-kinase beta and on Vps34 were 1.2 µM and 1.6 µM, respectively.
For the compound `Cc1ncc(-c2cc(-c3cc(S(=O)(=O)NCC4CC4)ccc3C)cnc2N)o1` [Example 104.12, 3-(6-amino-5-(2-methyloxazol-5-yl)pyridin-3-yl)-N-(cyclopropylmethyl)-4-methylbenzenesulfon-amide], at Vps34, the IC50 was 1.4 µM.
For `Cc1ncc(-c2cc(-c3cc(S(=O)(=O)NC4CC4)ccc3C)cnc2N)o1` [Example 104.14, 3-(6-amino-5-(2-methyloxazol-5-yl)pyridin-3-yl)-N-cyclopropyl-4-methylbenzenesulfon-amide], the half-inhibitory concentration (IC50) on PI 4-kinase beta and at Vps34 was 1.2 µM in each case.
Regarding `Cc1ncc(-c2cc(-c3cc(S(=O)(=O)NCC4(O)CC4)ccc3C)cnc2N)o1` [Example 114.1, 3-(6-amino-5-(2-methyloxazol-5-yl)pyridin-3-yl)-N-((1-hydroxycyclopropyl)methyl)-4-methylbenzenesulfon-amide], on PI 3-kinase beta, the IC50 is 1.4 µM.
